The chains behind the UniProt entries cited, without tags or fusion partners. Where a name states a change or a piece, a line headed by the entry shows the natural chain unless it says otherwise. Residues count along the entry.
UniProt Q63380, 1-617: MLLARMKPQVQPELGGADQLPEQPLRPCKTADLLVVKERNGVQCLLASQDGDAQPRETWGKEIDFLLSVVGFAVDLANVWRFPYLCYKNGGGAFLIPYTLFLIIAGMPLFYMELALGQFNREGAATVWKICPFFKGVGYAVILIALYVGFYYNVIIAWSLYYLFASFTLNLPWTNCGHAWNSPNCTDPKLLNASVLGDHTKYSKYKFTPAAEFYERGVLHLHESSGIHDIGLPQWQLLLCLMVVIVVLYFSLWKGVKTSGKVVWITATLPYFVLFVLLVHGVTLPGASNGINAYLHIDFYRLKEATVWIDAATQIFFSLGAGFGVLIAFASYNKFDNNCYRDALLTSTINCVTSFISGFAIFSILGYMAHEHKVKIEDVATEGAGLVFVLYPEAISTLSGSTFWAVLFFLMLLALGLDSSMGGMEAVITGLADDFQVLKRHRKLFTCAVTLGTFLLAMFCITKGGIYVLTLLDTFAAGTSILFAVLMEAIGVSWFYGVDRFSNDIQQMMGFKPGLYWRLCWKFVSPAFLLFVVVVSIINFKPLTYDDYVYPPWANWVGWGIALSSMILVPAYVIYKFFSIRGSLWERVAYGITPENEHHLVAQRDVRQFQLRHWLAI
UniProt A0A286XTF2, 1-366: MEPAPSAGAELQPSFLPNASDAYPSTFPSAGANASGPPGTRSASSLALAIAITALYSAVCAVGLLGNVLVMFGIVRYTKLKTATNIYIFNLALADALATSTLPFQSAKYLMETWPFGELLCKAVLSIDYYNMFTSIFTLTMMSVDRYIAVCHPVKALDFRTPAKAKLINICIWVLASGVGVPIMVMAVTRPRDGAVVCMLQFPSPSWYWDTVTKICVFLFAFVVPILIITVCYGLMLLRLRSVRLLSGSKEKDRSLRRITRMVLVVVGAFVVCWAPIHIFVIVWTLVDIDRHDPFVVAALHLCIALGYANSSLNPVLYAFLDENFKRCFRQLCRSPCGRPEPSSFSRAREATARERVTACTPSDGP
UniProt P19327, whole entry: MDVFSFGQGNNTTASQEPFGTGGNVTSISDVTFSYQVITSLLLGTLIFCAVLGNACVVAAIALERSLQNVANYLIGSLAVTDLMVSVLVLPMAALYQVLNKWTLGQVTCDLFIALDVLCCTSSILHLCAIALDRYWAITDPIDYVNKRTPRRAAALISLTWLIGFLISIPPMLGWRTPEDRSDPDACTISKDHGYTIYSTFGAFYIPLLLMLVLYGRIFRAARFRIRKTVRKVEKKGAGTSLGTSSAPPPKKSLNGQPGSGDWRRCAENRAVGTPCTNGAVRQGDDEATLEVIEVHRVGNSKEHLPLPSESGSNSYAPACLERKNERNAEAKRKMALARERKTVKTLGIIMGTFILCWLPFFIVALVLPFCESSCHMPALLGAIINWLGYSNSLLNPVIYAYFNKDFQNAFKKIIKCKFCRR
UniProt P35563, 24-483: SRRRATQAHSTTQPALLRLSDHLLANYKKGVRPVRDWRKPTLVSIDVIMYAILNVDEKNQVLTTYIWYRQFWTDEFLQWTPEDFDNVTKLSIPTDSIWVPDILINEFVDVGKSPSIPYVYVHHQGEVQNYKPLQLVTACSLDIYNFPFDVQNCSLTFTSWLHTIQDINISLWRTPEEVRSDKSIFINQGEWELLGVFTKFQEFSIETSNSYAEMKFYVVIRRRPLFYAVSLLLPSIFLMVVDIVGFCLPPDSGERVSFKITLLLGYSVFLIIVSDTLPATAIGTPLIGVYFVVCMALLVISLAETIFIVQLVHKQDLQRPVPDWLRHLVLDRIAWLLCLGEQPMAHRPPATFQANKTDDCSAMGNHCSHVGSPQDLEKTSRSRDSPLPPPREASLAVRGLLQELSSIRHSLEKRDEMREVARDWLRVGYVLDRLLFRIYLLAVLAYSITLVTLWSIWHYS

In paper PMC3100226 (Journal of Pain Research, 2011):

What was measured:
[1] = biological target: NE uptake (Rattus norvegicus, UniProt Q63380); assay: Receptor characterization panel: NE uptake site binding
[2] = biological target: DOP (Opiate δ) (Cavia porcellus, UniProt A0A286XTF2); assay: Receptor characterization panel: DOP binding; parameters: species or system guinea pig
[3] = biological target: 5-HT1A (Rattus norvegicus, UniProt P19327); assay: Receptor characterization panel: 5-HT1A binding; details: read-out: Reference agents (IC50); [3H]8-OH-DPAT; hippocampus/rat
[4] = biological target: 5-HT3 (Rattus norvegicus, UniProt P35563); assay: Receptor characterization panel: 5-HT3 binding; details: read-out: Reference agents (IC50); [3H]BRL 43,694; hippocampus-cortex/rat
[5] = biological target: NMDA/channel site (Rattus norvegicus, UniProt P35439); assay: Receptor characterization panel: NMDA channel site binding

**Q.** Which IC50 [1] does the source give for CNCCC(Oc1ccccc1OC)c1ccccc1 (centres unmarked) [Nisoxetine] here?
**A.** 1.1 nM

**Q.** Which IC50 [2] does the source give for Oc1ccc2c3c1O[C@H]1c4[nH]c5ccccc5c4C[C@@]4(O)[C@@H](C2)N(CC2CC2)CC[C@]314 [Naltrindole] here?
**A.** 1.25 nM

**Q.** Which IC50 [3] does the source give for NCCc1c[nH]c2ccc(O)cc12 [5-HT, reference compound] here?
**A.** 11.4 nM

**Q.** And the IC50 [4]?
**A.** 328 nM

**Q.** How did the IC50 [5] turn out when CC12CC3CC(C)(C1)CC(N)(C3)C2 [Memantine] was run?
**A.** 1300 nM
